# Assay results published in patent publication US4465692A (Nelson Research & Development Company, priority 1982, dated 1984).
# Protein sequences, listed by entry. Tags and fused reporters are not part of them.
# UniProt P61169, whole entry: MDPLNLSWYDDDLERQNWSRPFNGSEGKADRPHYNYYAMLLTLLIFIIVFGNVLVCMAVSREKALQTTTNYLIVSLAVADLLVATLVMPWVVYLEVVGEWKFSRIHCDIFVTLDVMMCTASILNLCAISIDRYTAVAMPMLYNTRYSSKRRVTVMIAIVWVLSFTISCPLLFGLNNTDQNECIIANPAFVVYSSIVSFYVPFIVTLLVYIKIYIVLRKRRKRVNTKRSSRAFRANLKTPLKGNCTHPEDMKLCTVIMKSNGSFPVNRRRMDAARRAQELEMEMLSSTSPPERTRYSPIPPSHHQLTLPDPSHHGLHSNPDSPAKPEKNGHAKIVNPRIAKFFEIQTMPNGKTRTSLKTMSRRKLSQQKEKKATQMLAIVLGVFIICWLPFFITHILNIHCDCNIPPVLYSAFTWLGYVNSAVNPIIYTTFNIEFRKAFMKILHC
# Assays:
# [1] = biological target: D-2 receptor (Rattus norvegicus, UniProt P61169); assay: biochemical
# [2] = biological target: dopamine receptor (Rattus norvegicus, UniProt P61169); assay: biochemical
compound,measurement,setting,value
"CN1CCc2cccc3c2[C@H]1Cc1ccc(O)c(O)c1-3 [Apomorphine, reference compound]",IC50,[1],1500 nM
same,IC50,[2],57 nM
